Common to all, as to type: cell-based
In experiment [1] the target is T1, Src kinase Hck Thr338Leu (Homo sapiens, UniProt P08631, T333L).
T1 construct: expressed in transfected cells; host or cells: Cos7 cells, pApuro vector
In words: Tyrosine phosphorylation in Cos7 cells expressing Hck mutant, with/without inhibitor. The following applies: PP1 incubation prior to lysis.

The chains behind the UniProt entries cited, without tags or fusion partners. Residues count along the entry.
UniProt P08631, whole entry T333L: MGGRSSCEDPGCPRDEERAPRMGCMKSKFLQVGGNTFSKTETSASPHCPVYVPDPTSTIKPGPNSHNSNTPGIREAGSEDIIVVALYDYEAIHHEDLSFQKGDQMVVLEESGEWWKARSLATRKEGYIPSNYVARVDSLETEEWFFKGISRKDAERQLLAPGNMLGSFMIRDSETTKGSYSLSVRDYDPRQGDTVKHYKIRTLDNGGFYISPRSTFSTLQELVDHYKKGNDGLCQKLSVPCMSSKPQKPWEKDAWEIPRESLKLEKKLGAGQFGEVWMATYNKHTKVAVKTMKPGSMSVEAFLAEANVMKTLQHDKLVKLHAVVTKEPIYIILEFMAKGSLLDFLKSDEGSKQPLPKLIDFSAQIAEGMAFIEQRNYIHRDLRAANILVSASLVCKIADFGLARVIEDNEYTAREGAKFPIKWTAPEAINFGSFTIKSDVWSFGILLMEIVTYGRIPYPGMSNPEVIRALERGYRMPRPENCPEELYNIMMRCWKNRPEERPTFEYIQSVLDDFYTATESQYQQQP
UniProt P08631, whole entry T333Q: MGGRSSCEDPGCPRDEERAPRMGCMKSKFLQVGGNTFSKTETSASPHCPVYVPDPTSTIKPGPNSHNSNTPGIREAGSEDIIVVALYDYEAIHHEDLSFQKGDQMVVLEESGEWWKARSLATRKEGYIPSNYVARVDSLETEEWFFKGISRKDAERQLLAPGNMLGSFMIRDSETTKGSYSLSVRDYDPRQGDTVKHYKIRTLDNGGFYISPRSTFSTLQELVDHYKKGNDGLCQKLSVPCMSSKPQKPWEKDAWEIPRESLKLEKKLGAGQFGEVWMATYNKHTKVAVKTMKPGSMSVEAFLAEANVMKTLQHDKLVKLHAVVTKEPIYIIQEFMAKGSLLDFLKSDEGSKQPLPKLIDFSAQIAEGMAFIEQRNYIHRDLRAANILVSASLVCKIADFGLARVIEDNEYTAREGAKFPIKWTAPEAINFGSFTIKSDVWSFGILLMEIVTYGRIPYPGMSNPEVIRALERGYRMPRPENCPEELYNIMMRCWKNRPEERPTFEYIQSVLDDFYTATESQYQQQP
UniProt P08631, whole entry T333F: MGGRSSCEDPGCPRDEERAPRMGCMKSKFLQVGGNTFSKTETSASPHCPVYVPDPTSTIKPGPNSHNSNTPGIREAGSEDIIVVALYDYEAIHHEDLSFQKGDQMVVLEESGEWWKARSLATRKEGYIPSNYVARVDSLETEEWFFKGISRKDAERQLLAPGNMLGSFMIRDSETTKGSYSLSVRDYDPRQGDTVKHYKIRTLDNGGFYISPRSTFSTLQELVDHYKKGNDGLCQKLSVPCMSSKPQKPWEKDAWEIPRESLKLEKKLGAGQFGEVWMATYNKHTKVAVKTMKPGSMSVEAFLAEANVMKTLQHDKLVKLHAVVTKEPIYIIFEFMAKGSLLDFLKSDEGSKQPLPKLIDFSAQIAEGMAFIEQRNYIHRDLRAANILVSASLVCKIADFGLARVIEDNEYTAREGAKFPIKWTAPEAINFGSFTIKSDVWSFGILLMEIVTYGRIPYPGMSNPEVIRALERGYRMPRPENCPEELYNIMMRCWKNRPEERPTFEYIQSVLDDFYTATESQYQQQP
UniProt P08631, whole entry T333I: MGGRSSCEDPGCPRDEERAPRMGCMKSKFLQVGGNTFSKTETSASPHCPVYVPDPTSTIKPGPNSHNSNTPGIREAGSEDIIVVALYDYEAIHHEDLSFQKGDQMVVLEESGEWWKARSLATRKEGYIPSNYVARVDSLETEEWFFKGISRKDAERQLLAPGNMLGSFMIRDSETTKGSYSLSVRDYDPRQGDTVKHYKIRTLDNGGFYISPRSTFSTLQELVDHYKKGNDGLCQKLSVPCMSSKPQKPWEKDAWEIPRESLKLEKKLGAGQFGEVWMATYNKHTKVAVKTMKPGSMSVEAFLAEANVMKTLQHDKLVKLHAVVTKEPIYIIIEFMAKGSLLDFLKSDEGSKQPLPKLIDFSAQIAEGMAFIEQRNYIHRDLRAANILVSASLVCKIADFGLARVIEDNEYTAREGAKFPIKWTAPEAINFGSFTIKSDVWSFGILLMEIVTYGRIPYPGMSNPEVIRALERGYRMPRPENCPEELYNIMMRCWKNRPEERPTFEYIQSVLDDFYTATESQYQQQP
UniProt P08631, 2-526 A398C: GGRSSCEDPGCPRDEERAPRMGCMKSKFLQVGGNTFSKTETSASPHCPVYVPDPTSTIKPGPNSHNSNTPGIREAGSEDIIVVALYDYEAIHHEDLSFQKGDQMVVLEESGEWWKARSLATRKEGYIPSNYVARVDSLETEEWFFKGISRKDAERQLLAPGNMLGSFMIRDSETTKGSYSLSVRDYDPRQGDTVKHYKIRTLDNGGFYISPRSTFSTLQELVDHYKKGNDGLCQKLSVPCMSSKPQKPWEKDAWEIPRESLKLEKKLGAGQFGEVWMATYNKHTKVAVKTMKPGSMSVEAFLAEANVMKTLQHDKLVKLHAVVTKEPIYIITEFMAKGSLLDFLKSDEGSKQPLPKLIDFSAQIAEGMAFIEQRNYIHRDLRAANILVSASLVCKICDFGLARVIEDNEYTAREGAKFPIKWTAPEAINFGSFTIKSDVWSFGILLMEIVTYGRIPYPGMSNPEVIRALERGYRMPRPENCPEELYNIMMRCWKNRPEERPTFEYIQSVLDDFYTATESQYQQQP
UniProt P08631, 23-526 A398S: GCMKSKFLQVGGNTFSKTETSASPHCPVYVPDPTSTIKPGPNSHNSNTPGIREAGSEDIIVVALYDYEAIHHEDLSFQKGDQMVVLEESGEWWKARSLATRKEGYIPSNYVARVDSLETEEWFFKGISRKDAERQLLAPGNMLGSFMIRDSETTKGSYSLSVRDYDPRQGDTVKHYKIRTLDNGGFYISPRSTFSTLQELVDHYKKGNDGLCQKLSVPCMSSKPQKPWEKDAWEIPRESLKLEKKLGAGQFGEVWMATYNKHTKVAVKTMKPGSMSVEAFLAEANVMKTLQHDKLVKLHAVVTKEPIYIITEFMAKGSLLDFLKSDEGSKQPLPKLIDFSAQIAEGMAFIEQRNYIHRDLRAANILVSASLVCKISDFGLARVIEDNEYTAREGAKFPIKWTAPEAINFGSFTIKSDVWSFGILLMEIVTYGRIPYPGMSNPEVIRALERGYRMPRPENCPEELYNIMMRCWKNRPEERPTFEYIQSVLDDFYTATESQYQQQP
UniProt P08631, whole entry T333V: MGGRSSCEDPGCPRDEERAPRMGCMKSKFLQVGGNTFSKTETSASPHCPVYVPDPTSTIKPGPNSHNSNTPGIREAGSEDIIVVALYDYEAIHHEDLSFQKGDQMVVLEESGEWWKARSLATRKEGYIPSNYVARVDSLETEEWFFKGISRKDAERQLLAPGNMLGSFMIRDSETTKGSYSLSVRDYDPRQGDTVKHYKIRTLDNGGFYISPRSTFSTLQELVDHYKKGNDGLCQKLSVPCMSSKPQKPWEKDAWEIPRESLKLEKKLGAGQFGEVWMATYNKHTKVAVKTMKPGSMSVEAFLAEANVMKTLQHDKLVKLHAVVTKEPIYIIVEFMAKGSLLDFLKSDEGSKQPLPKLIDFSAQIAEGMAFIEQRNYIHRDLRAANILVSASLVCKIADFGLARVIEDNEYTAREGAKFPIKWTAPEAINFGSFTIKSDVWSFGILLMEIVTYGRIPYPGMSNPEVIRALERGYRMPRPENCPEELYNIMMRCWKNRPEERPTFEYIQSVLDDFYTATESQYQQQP
UniProt P08631, whole entry T333M: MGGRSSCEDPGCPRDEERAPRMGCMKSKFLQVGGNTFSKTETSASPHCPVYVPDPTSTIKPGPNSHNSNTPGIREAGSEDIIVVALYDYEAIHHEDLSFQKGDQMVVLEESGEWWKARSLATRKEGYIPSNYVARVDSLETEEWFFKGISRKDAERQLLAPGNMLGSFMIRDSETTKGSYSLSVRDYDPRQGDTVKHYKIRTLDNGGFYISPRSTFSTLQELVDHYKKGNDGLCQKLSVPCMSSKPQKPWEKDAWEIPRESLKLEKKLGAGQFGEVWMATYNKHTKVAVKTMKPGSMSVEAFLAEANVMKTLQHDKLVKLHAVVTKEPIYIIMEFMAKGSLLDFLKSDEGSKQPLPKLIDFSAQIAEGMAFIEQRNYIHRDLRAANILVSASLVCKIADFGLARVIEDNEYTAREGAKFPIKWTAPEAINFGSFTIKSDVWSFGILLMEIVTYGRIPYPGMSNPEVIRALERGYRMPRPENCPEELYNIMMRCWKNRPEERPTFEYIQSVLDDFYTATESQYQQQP
UniProt P08631, 2-526 A398T: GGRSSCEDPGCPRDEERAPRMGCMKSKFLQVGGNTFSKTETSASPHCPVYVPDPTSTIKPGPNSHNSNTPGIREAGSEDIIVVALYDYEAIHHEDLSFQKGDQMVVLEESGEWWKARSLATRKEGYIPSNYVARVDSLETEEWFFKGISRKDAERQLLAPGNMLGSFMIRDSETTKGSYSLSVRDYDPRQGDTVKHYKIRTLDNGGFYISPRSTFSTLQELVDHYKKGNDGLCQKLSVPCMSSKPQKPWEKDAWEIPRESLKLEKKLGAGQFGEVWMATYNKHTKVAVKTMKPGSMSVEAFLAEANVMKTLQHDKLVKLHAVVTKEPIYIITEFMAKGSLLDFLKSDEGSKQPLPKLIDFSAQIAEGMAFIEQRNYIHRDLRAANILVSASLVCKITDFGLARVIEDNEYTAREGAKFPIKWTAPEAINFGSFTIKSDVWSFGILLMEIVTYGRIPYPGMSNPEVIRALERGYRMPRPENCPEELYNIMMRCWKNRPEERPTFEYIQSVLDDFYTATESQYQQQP

For experiment [2], the target named is T2, Src kinase Hck Thr338Gln (Homo sapiens, UniProt P08631, T333Q).
T2 construct: expressed in transfected cells; host or cells: Cos7 cells, pApuro vector
The experiment is described as above. Particulars: PP1 incubation prior to lysis.

In experiment [3] the target is T3, wt Src kinase Hck (Homo sapiens, UniProt P08631).
T3 construct: expressed in transfected cells; host or cells: Cos7 cells, pApuro vector
Description: Tyrosine phosphorylation in Cos7 cells expressing wt Hck, with/without inhibitor (Western blot, PY99). The following applies: PP1 incubation prior to lysis (25 μM, 100 μM elsewhere in the source).

Experiment [4] deals with T4, Src kinase Hck Thr338Phe (Homo sapiens, UniProt P08631, T333F).
T4 construct: expressed in transfected cells; host or cells: Cos7 cells, pApuro vector
In words: Tyrosine phosphorylation in Cos7 cells expressing Hck mutant, with/without inhibitor. The following applies: PP1 incubation prior to lysis.

The target in experiment [5] is T5, Src kinase Hck Thr338Ile (Homo sapiens, UniProt P08631, T333I).
T5 construct: expressed in transfected cells; host or cells: Cos7 cells, pApuro vector
The experiment is described as above. Particulars: PP1 incubation prior to lysis.

The target in experiment [6] is T6, Src kinase Hck Ala403Cys (Homo sapiens, UniProt P08631, A398C).
T6 construct: expressed in transfected cells; host or cells: Cos7 cells, pApuro vector
Described as above. The following applies: PP1 incubation prior to lysis.

The target of experiment [7] is T7, Src kinase Hck Ala403Ser (Homo sapiens, UniProt P08631, A398S).
T7 construct: expressed in transfected cells; host or cells: Cos7 cells, pApuro vector
The description is as above. The following applies: PP1 incubation prior to lysis.

The target in experiment [8] is T8, Src kinase Hck Thr338Val (Homo sapiens, UniProt P08631, T333V).
T8 construct: expressed in transfected cells; host or cells: Cos7 cells, pApuro vector
The description is as above. The following applies: PP1 incubation prior to lysis.

In experiment [9] the target is T9, Src kinase Hck Thr338Met (Homo sapiens, UniProt P08631, T333M).
T9 construct: expressed in transfected cells; host or cells: Cos7 cells, pApuro vector
The experiment is described as above. The following applies: PP1 incubation prior to lysis.

For experiment [10], the target named is T10, Src kinase Hck Ala403Thr (Homo sapiens, UniProt P08631, A398T).
T10 construct: expressed in transfected cells; host or cells: Cos7 cells, pApuro vector
Described as above. Particulars: PP1 incubation prior to lysis.

Regarding `Cc1ccc(-c2nn(C(C)(C)C)c3ncnc(N)c23)cc1` [PP1], the “Inhibited by PP1” value is “not inhibited and remains largely unchanged and could no longer be inhibited and no” in experiment [1]; “not inhibited and remains largely unchanged and could no longer be inhibited and no” in experiment [2]; “inhibited and cancels the phosphorylation induced by wt Hck or considerably reduces it and yes” in [3]; “not inhibited and remains largely unchanged and could no longer be inhibited and no” in [4]; “not inhibited and remains largely unchanged and could no longer be inhibited and no” in [5]; “inhibited and The same applies and yes” in [6]. Besides, the “Inhibited by PP1” value in [7] was “inhibited and The same applies and yes”; in experiment [8], “inhibited and The same applies and yes”; in experiment [9], “not inhibited and remains largely unchanged and could no longer be inhibited and no”; in [10], “inhibited and The same applies and yes”.

The record behind these values is patent US20030162222A1, “Method for selecting enzyme inhibitors” (priority 2000, published 2003).
